Test results taken from paper PMC9304232 (Epilepsia, 2022).

By UniProt entry, the sequences of proteins in these tests, tags left out.
UniProt Q9UQD0, whole entry: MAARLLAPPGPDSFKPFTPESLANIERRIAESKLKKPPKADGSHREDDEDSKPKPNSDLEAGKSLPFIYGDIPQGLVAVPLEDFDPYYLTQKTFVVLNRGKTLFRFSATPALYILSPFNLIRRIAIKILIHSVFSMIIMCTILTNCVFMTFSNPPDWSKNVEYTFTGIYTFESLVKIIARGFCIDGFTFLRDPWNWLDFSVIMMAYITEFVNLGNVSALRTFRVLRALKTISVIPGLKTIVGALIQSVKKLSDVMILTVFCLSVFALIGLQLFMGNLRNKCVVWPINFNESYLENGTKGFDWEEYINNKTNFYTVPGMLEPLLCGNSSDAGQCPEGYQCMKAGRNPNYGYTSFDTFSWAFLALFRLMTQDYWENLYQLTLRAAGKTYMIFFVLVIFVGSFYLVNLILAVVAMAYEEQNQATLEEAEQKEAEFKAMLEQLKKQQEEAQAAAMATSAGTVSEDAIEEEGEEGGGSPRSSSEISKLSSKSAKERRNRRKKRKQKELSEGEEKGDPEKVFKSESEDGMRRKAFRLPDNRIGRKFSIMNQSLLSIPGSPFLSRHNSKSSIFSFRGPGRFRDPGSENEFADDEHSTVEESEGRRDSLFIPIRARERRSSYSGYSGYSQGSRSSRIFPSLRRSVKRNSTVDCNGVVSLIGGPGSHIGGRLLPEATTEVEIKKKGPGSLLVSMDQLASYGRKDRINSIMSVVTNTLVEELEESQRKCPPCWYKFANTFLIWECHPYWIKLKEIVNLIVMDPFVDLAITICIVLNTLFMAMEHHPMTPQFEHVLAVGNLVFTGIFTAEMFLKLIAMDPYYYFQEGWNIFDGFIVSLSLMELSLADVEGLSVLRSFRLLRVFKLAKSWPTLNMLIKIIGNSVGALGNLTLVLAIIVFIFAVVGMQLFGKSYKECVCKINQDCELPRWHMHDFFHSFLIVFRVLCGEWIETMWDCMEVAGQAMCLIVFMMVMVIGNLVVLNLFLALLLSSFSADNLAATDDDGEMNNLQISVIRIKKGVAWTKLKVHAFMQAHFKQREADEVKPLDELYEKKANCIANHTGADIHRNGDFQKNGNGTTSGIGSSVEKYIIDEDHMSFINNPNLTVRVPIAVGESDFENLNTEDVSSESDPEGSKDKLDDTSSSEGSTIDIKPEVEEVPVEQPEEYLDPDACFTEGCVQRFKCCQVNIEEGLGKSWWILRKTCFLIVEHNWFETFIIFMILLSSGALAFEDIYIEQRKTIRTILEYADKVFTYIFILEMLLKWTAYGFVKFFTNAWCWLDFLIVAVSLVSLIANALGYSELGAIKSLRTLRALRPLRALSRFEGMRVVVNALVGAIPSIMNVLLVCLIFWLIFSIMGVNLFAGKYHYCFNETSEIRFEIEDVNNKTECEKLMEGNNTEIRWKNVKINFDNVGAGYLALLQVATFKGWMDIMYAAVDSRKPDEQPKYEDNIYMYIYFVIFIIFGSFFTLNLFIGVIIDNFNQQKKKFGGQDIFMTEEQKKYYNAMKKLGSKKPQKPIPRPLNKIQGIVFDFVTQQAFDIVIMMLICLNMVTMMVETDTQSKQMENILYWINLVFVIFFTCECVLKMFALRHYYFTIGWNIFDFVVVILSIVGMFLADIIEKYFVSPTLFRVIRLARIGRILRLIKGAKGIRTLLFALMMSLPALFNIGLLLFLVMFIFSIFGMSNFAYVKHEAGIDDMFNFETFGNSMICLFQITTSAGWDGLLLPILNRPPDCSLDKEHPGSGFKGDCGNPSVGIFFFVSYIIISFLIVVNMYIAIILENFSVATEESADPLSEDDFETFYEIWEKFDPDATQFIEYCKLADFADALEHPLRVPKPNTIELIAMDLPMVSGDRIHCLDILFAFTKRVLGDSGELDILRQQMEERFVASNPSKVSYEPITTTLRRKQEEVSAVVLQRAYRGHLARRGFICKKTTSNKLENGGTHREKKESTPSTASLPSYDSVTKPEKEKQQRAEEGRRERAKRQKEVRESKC

Key:
hNaV1.6 [1] = target: T1, hNaV1.6 (Homo sapiens, UniProt Q9UQD0); experiment: Peak INa use‐dependent block; type: cell-based
[2] = tested on: hippocampal CA1 pyramidal neurons; experiment: Evoked action potential firing; type: cell-based; settings: wild‐type mouse CA1 neurons
hNaV1.6 [3] = target: T1, hNaV1.6; experiment: Peak INa tonic block; type: cell-based; settings: TB IC50 / persistent INa IC50
hNaV1.6 [4] = target: T1, hNaV1.6; experiment: Peak INa voltage‐dependent block; settings: VDB IC50 / persistent INa IC50

## NC(=O)N1c2ccccc2C=Cc2ccccc21 [Carbamazepine, carbamazepine]
hNaV1.6 [1]; UDB IC50 / persistent INa IC50
  Ratio to persistent INa (peak INa UDB): 18
hNaV1.6 [1]; preference of use‐dependent block over tonic block
  Ratio to peak INa TB (peak INa UDB): 1.6
[2]; 45 µmol·L^–1
  Neuronal excitability, number of evoked APs: more robust reduction
[2]; 45 µmol·L^–1, +200 pA
  AP amplitude: more pronounced reduction
hNaV1.6 [3]
  Ratio to persistent INa (peak INa TB): 30
hNaV1.6 [4]
  Ratio to persistent INa (peak INa VDB): .6
